How the values were obtained:
[1] = mouse; cited from earlier work
[2] = Plasma d-FEN and d-norFEN levels and half-life in mice; format: in vivo; details: mouse; d-FEN p.o. in drinking water; sacrificed 11:00-13:00 h
Description: Drug Plasma Levels. At the time of sacrifice, serum was collected by cardiac puncture, the plasma separated and frozen, then air expressed to Dr. Bruce Campbell (Servier UK) for analysis of d-FEN and d-norFEN levels.
Plasma d-FEN and d-norFEN Levels. […] This absence of drug and metabolite detectability may not only be due to the low oral dose of d-FEN employed but to the time of sacrifice. Mice like rats are prandial drinkers during the dark period of the light-dark cycle. The animals were sacrificed between 11:00 and 13:00 h, 4-6 h after the end of the dark period. Since the t1/2s of d-FEN and d-norFEN in the mouse are 4 and 6 h, respectively, by the time of sacrifice the plasma concentrations had likely fallen below the levels of assay detectability.

[3] = oral administration; cited from earlier work

SMILES: CCN[C@@H](C)Cc1cccc(C(F)(F)F)c1 [d-FEN]
- t1/2 [1]: 4 h
- plasma d-FEN and d-norFEN levels at sacrifice [2]: Neither d-FEN nor d-norFEN was detected
- bioavailability [3]: approximately 68%

Source: patent US5955508A, “Method for the enhancement of lymphocyte activity against opportunistic microbial pathogens” (priority 1996, dated 1999)
